Here are results for one molecule from patent US20140378378A1, “ERYTHROPOIETIN-DERIVED PEPTIDE AND USE THEREFOR” (priority 2011, published 2014).

One test deals with HIT-T15 β-cells. Kind of test: Cell survival of HIT-T15 β-cells pre-treated with MKX-2 and then treated with H2O2, MTT assay. It is filed as cell-based, hamster. As to the method:
HIT-T15 cells (75 to 77 passages), which are from an insulin secretion cell line derived from a hamster, and INS-1 cells (18 to 20 passages), which are from an insulin secretion cell line derived from a rat, were used. A culture medium used for culturing HIT-T15 cells was 10% FBS, 100 units/ml of penicillin, and 100 µg/ml of streptomycin added to RPMI-1640. The culture medium used for culturing INS-1 cells was 10% FBS and 1 mM pyruvate, 10 mM HEPES, 50 mM 2-mercaptoethanol, 100 units/ml penicillin, 100 µg/ml of streptomycin mixed in RPMI-1640. Two β-cell lines were cultured in conditions in which 95% humidity was maintained at a temperature of 37° C. and included 5% CO2. When cell confluence reached about 70% to about 80%, the cells were washed with PBS and then treated with 0.05% trypsin-EDTA to subculture the cells.
β-cells were divided into wells in a 24-well plate at a concentration of 1×10^5 cells/well and the β-cells were cultured for 24 hours such that a cell confluence reached about 70% to about 80%. After 24 hours, a pre-existing medium was removed and then replaced with RPMI-1640 including 0.5% FBS, cultured for 6 hours, and then the β-cells were inhibited from proliferation and differentiation. MKX-2 was dissolved in DMSO and then was used to pre-treat the β-cells at concentrations of 0 ng/ml, 0.12 ng/ml, 1.2 ng/ml, 12 ng/ml, 60 ng/ml, and 120 ng/ml, 1 hour prior to a H2O2 treatment. A control group was treated with DMSO at 0.001% to be compared to the treatment group. 1 hour after an MKX-2 treatment, a H2O2 treatment was performed for about 2 hours or about 4 hours. […] An absorbance value was quantitatively analyzed to calculate a cell growth inhibition rate
As described above, HIT-T15 and INS-1 cells, which are β-cells of islets of Langerhans, were seeded at a density of 1×10^5 cells/well for each well in a 24-well plate, which were then stabilized, and a preexisting medium was carefully removed therefrom on the day of the experiment, including even a miniscule amount of medium that remained after the removal. Thereafter, RPMI-1640 medium including 0.5% FBS was used to culture the β-cells for 6 hours and stop proliferation and differentiation of the β-cells. An MKX-2 treatment group and a control group only including the same amount of DMSO, which was used to dissolve MKX-2, were prepared. Thereafter, the MKX-2 treatment group was treated with in amounts of 0 ng/ml, 0.12 ng/ml, 1.2 ng/ml, 12 ng/ml, 60 ng/ml, and 120 ng/ml and then the β-cells were treated with H2O2 (100 M) for about 2 hours to about 4 hours to put the β-cells under stress, and then an MTT assay was used to compare cell survival rates.
(In general: Tetrazolium assays rely on reduction of a dye to a coloured formazan, in cell work by metabolically active cells.)

Test [1] has as its system cerebral infarction induced Sprague-Dawley rat models. Kind of test: Cerebral infarction animal experiment: middle cerebral artery blockage/reperfusion, infarct volume by TTC dye. In kind it is in vivo. Particulars: 3.6 μg/kg MKX-2 injected right after reperfusion, measured after 24 hours. The text has this: In the present experiment, Spague-Dawley (SD) rats weighing about 280 g to about 330 g were used, which were purchased from Koatech Inc. (Seoul, Korea). The number of rats used was 39, wherein 13 of them were used as a control group and another 26 were divided into 13 in a MKX-2 treatment group and 13 in an EPO treatment group.
To induce cerebral infarction, a method of temporarily blocking a left middle cerebral artery and then reperfusing the same was used, and an intraluminal filament technique, which was modified from the Koizumi method was used. Then, each SD rat was anesthetized with a mixture gas of 70% nitrous oxide and 30% oxygen along with isoflurane (3% for induction and 2% for surgical procedure). During the surgery, an excision was made slightly leftwards from the center of the neck and the left common carotid artery was carefully separated without damaging surrounding vagus nerves. […]
The cerebral infarction area was measured by an image analyzer with LeicaQwin program (Leica Microsystem Image Solution Ltd., Cambridge, England) and a volume (mm^3) was calculated as a sum of infarct volumes (=infarct area of a slice×thickness) of the slices, and then an average and a standard deviation were calculated for each experimental group. […]

On to `CC[C@H](C)[C@H](N)C(=O)N[C@@H](CO)C(=O)NCC(=O)N[C@@H](CC(C)C)C(=O)N[C@@H](CCCNC(=N)N)C(=O)N[C@@H](CO)C(=O)N[C@@H](CC(C)C)C(=O)N[C@H](C(=O)N[C@H](C(=O)N[C@@H](CC(C)C)C(=O)N[C@@H](CC(C)C)C(=O)N[C@@H](CCCNC(=N)N)C(=O)N[C@@H](C)C(=O)N[C@@H](CC(C)C)C(=O)NCC(=O)N[C@@H](C)C(=O)N[C@@H](CCC(N)=O)C(=O)N[C@@H](CCCCN)C(=O)N[C@@H](CCC(=O)O)C(=O)N[C@@H](CC(C)C)C(=O)N[C@@H](CCSC)C(=O)O)[C@@H](C)O)[C@@H](C)O` [MKX-2], for which the “cell survival rate compared to non-MKX-2 treatment group” value in the test with HIT-T15 β-cells (0.12 ng/ml and 1.2 ng/ml, H2O2 treatment for 2 hours or 4 hours) is “did not show a statistically significant difference”. Further, the cell survival rate in the test with HIT-T15 β-cells (12 ng/ml, H2O2 treatment for 2 hours) came to 78.5%+0.92; in the test with HIT-T15 β-cells (12 ng/ml, H2O2 treatment for 4 hours) it was 59.57%+2.09; in the test with HIT-T15 β-cells (60 ng/ml, H2O2 treatment for 2 hours), 92.3%+5.24; in the test on HIT-T15 β-cells (60 ng/ml, H2O2 treatment for 4 hours), 67.19%+1.05; in the test with HIT-T15 β-cells (120 ng/ml, H2O2 treatment for 2 hours) it was 104.1%+2.87; in the test on HIT-T15 β-cells (120 ng/ml, H2O2 treatment for 4 hours) it was 84.73%+4.82. Moreover, the “volume of cerebral infarction” value in test [1] was 159.24 ± 27.78 mm^3.
